Antibody variant affinities, Ab-14 light chain, assay B

The measurements come from Li et al. 2023 (doi:10.1038/s41467-023-39022-2) through the FLAb antibody collection.

Binding partner: SARS-CoV-2 spike HR2 peptide, sequence PDVDLGDISGINAS.

The variants keep the heavy chain, the linker and the frameworks of Ab-14 (scFv order VH, three GGGGS repeats, VL).
VH: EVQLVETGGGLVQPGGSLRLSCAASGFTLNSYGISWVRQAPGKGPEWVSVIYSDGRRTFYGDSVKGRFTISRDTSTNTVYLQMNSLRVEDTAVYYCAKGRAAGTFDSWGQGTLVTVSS
VL: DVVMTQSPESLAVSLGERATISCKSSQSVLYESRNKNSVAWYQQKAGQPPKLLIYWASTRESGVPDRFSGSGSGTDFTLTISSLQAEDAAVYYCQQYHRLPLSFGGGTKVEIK

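These sequences belong to a second round, designed from the earlier measurements on random variants of the parent. Several design methods are mixed in this list. AlphaSeq pools MATa yeast showing the antibodies with MATalpha yeast showing the peptide. After mating in shaken culture at 30 °C for 16 h, diploids were selected and their barcode pairs sequenced. A regression on co-assayed BCL2-family reference pairs converts the normalised counts of each replicate to an apparent Kd. Mating was done six times.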

The parent's light chain CDRs are KSSQSVLYESRNKNSVA, WASTRES, QQYHRLPLS; each variant's own CDRs replace them letter for letter. This list holds designs with more than six substitutions. The Kd shown is the geometric mean over detected replicates; a lower Kd is a better binder. "nd" marks a missing value. The strain was present, yet no cells mated with the target were sequenced in any replicate, which points to weak or no binding. A sequence measured in both rounds can read differently, since the two assays cover different ranges. The parent sequence was in this pool as ten entries: three were never detected, three once, and four in most replicates, with averages from 2.2 nM to 240 nM. Background: pairings of all light chain designs with three empty control strains gave a value in 4% of cases (median 430 nM, 5th percentile 38 nM). Values in that range, when seen in few replicates, are hard to tell from nonspecific mating. In the paper, a design with two or fewer of six values counts as a poor binder.

Variant HMSMITLQGMRMRNSVA | QMTTREN | QQYDHLPLS showed 130 nM (4 of 6 replicates). Variant KMSQSNDYESRNSNAVA | NASQREM | QQYHRLPLS gave 1.3 nM (6 of 6 replicates). Variant TISGLIMMPSRNANSVA | NTSTRYS | QQYHRLPLS gave 2.6 nM (6 of 6 replicates). For KLKQLMHIESFNKNNVA | EMTTREK | QSYDRLPLS, the assay gave 4.5 nM (6 of 6 replicates). Variant MISQVMNTLTRQGNNVA | DLQNREN | QQYFRLPLS gave 68 nM (4 of 6 replicates). For RISQIIQENVRQYNSVA | NGMTRNA | QHYSRLPLE, the assay gave 82 nM (6 of 6 replicates). For KMEQGVMYESRNKMSVA | GASVRES | QQYHRLPLS, the assay gave 650 pM (6 of 6 replicates). With QLQIEPNGYMGMRSNVA | DGVDVRM | QQYARLPLM the result was 25 nM (6 of 6 replicates).

For KLSPSEQYEDRNCNAVA | QASQRES | QQYHRLPLS, the assay gave 1.6 nM (6 of 6 replicates). With IISQSVLGEYHNKNSVA | QTSERGS | QQYDRLPLS the result was 4.1 nM (6 of 6 replicates). Variant KLWAYTQGFFRNMQNIA | DISYRVT | QQYGRLPLS gave 19 nM (6 of 6 replicates). For KSSQSVGYMSSNKNSIA | WASERES | QQYHRMMLS, the assay gave nd (0 of 6 replicates). For KVDFLGLYEQRNKNSVA | SASTRES | QQYHRLPLS, the assay gave 720 pM (6 of 6 replicates). Variant SLNKHAWDFNQTWNSVA | DHSMRVT | QDYIRLPLT showed nd (0 of 6 replicates). With MISQLMNMGQFAINSVA | QASLRYN | QQYDRLPLT the result was 23 nM (1 of 6 replicates). Variant YMSGQIDGGWNQQEAIA | EVTYKED | QQYYQLPLS gave nd (0 of 6 replicates).

Variant SLYEVSEELSGKKHSVA | DNSTRGE | QQYFRLPLE showed 5.1 nM (6 of 6 replicates). Variant RVTNEFFKEMERKNSVA | HTDQRCM | QQYFRLPLI gave 7.3 nM (6 of 6 replicates). Variant HVSSMLMAGGGIYNSIA | GNKVLER | QQYMRLPLM showed 1.2 nM (6 of 6 replicates). Variant TISTSALYESTNKNNVA | ELSTRGS | QQYERLPLS showed 3.8 nM (6 of 6 replicates). Variant KMSQENPYEDRNSNSVA | HASTREM | QQYHRLPLS showed 1.4 nM (6 of 6 replicates). With NISGMVEEIETRQKNIA | EVEFRCM | QQYSRLPLS the result was 110 nM (1 of 6 replicates). For KLSQVTHSEHKAKNSIA | EMVTREK | QQYDRLPLS, the assay gave 8.1 nM (6 of 6 replicates). With MISQLYNMGQFAINSVA | QAEERYN | QQYDRLPLI the result was 110 nM (5 of 6 replicates).

For KLMNSLDAFKQWEDNIA | ETEIKVA | QQYYHLPLT, the assay gave 110 nM (3 of 6 replicates). With KVSQLNLYESRNANNVA | NASLRES | QQYHRLPLS the result was 640 pM (6 of 6 replicates). For MMSQMFEGLSTSKNPVA | QVSTRFE | QQYHRLPLS, the assay gave 460 nM (6 of 6 replicates). Variant KLSQQMLYESRNKNSVA | HASLRLS | QCYHRLPLS showed 110 nM (6 of 6 replicates). Variant QIEIHGMDENQMYNHIA | NENIREF | QQYWHLPLS showed 6.1 nM (5 of 6 replicates). With KSSQGVLYESQNKNSVA | GASTRPF | YQYVRLPLS the result was 5.3 µM (1 of 6 replicates). With KLSQSVNFFGHAINSVA | EMVTREN | QQYDRLPLS the result was 22 nM (6 of 6 replicates). For KISQMTRVGSTHSNSIA | EEVTRAK | QQYHRLPLA, the assay gave 18 nM (6 of 6 replicates).

For KITTSLYSWGIDKGAVA | EENITVR | QQYFRLPFS, the assay gave 8.3 nM (6 of 6 replicates). Variant SLSEMEAGRDAANKSIA | AKELMME | QQYHRLPLA showed 230 nM (6 of 6 replicates). With IISGSMIMESRNKNSVA | NAETREY | QHYDRLPLS the result was 12 nM (6 of 6 replicates). With KFLEGMRGNQQNEQAVA | DAQHRVY | QQYCHLPLS the result was 8.2 nM (6 of 6 replicates). Variant TLSHSTDLESVHKNNIA | DLMTRES | QQYDRLPLS showed 2.2 nM (6 of 6 replicates). Variant MLSDVTEGMRRKHNSVA | DNNTRED | QQYDRLPLS gave 1.2 nM (6 of 6 replicates).

Top 6 of the variants detected in all replicates, tightest first:

| CDR-L1 | CDR-L2 | CDR-L3 | Kd | detected |
|---|---|---|---|---|
| KVSQLNLYESRNANNVA | NASLRES | QQYHRLPLS | 640 pM | 6 of 6 |
| KMEQGVMYESRNKMSVA | GASVRES | QQYHRLPLS | 650 pM | 6 of 6 |
| KVDFLGLYEQRNKNSVA | SASTRES | QQYHRLPLS | 720 pM | 6 of 6 |
| HVSSMLMAGGGIYNSIA | GNKVLER | QQYMRLPLM | 1.2 nM | 6 of 6 |
| MLSDVTEGMRRKHNSVA | DNNTRED | QQYDRLPLS | 1.2 nM | 6 of 6 |
| KMSQSNDYESRNSNAVA | NASQREM | QQYHRLPLS | 1.3 nM | 6 of 6 |